Source: patent US20250230147A1, “LACTAMS AS CBL-B INHIBITORS” (Genentech, Inc., priority 2021, published 2025)

What follows are molecules tested against c-Cbl (Homo sapiens (Human), UniProt P22681) (assay: C-Cbl LCK Ub TR-FRET assay (c-cbl Lck HTRF)). Conditions: C-cbl Lck HTRF IC50 relative to Cbl-b Lck HTRF IC50.
Type: biochemical
Procedure: 6 μL of detection mixture was added to all wells and briefly centrifuged before incubating for 20 min at room temperature. […] IC50 was generated using no LCK as the low control and DMSO as the high control.

Compound | (fold-selectivity)
CC(NCc1cc2c(c(C(F)(F)F)c1)CN(c1cccc(C3(Cc4nncn4C)CC(F)(F)C3)c1)C2=O)C1CC1.O=CO (centres unmarked) [Compound 319, 6-(((1-cyclopropylethyl)amino)methyl)-2-(3-(3,3-difluoro-1-((4-methyl-4H-1,2,4-triazol-3-yl)methyl)cyclobutyl)phenyl)-4-(trifluoromethyl)isoindolin-1-one formate] | (1.1x)
Cn1cnnc1CC1(c2cccc(N3Cc4c(cc(CNCC5COC(C)(C)O5)cc4C(F)(F)F)C3=O)c2)CC(F)(F)C1.O=CO (centres unmarked) [Compound 357, 2-(3-(3,3-difluoro-1-((4-methyl-4H-1,2,4-triazol-3-yl)methyl)cyclobutyl)phenyl)-6-((((2,2-dimethyl-1,3-dioxolan-4-yl)methyl)amino)methyl)-4-(trifluoromethyl)isoindolin-1-one formate] | (1.1x)
Cn1cnnc1CC1(c2cccc(N3Cc4c(cc(CNC5(C)CCCC5)cc4C(F)(F)F)C3=O)c2)CC(F)(F)C1.O=CO [Compound 344, 2-(3-(3,3-difluoro-1-((4-methyl-4H-1,2,4-triazol-3-yl)methyl)cyclobutyl)phenyl)-6-(((1-methylcyclopentyl)amino)methyl)-4-(trifluoromethyl)isoindolin-1-one formate] | (0.82x)
Cn1cnnc1[C@H](F)C1(c2cccc(N3Cc4c(cc(CNC5(C)CCC5)cc4C(F)F)C3=O)c2)COC1.O=CO [Compound 249, (R)-4-(difluoromethyl)-2-(3-(3-(fluoro(4-methyl-4H-1,2,4-triazol-3-yl)methyl)oxetan-3-yl)phenyl)-6-(((1-methylcyclobutyl)amino)methyl)isoindolin-1-one formate] | (1.7x)
Cn1cnnc1CC1(c2cccc(N3Cc4c(cc(CNCC5CCOC5)cc4C(F)(F)F)C3=O)c2)CC(F)(F)C1.O=CO (centres unmarked) [Compound 358, 2-(3-(3,3-difluoro-1-((4-methyl-4H-1,2,4-triazol-3-yl)methyl)cyclobutyl)phenyl)-6-((((tetrahydrofuran-3-yl)methyl)amino)methyl)-4-(trifluoromethyl)isoindolin-1-one formate] | (0.91x)
CNc1cc(C2(Cc3nncn3C)CCC2)cc(N2Cc3c(cc(CNC4(C)CCC4)cc3C(F)(F)F)C2=O)n1.O=CO [Compound 310, 2-(4-(1-((4-methyl-4H-1,2,4-triazol-3-yl)methyl)cyclobutyl)-6-(methylamino)pyridin-2-yl)-6-(((1-methylcyclobutyl)amino)methyl)-4-(trifluoromethyl)isoindolin-1-one formate] | (1.1x)
Cn1cnnc1[C@H](F)C1(c2cccc(N3Cc4c(cc(CNC5CCC5)cc4C(F)(F)F)C3=O)c2)COC1.O=CO [Compound 227, (R)-6-((Cyclobutylamino)methyl)-2-(3-(3-(fluoro(4-methyl-4H-1,2,4-triazol-3-yl)methyl)oxetan-3-yl)phenyl)-4-(trifluoromethyl)isoindolin-1-one formate] | (0.83x)
Cn1cnnc1CC1(c2cccc(N3Cc4c(cc(CN)cc4C(F)(F)F)C3=O)c2)COC1.O=CO [Compound 66, 6-(aminomethyl)-2-(3-(3-((4-methyl-4H-1,2,4-triazol-3-yl)methyl)oxetan-3-yl)phenyl)-4-(trifluoromethyl)isoindolin-1-one formate] | 1.3x
Cn1cnnc1CC1(c2cc(Cl)nc(N3Cc4c(cc(CNC5(C)CCC5)cc4C(F)(F)F)C3=O)c2)CCC1.O=CO [Compound 351, 2-(6-chloro-4-(1-((4-methyl-4H-1,2,4-triazol-3-yl)methyl)cyclobutyl)pyridin-2-yl)-6-(((1-methylcyclobutyl)amino)methyl)-4-(trifluoromethyl)isoindolin-1-one formate] | (0.56x)
Cn1cnnc1CC1(c2cccc(N3Cc4c(cc(CNC56CC(C)(C5)C6)cc4C(F)(F)F)C3=O)c2)CC(F)(F)C1.O=CO [Compound 354, 2-(3-(3,3-difluoro-1-((4-methyl-4H-1,2,4-triazol-3-yl)methyl)cyclobutyl)phenyl)-6-(((3-methylbicyclo[1.1.1]pentan-1-yl)amino)methyl)-4-(trifluoromethyl)isoindolin-1-one formate] | (0.55x)
CCNC(=O)CNc1cc(C2(Cc3nncn3C)CCC2)cc(N2Cc3c(cc(CNC4(C)CCC4)cc3C(F)(F)F)C2=O)n1.O=CO [Compound 307, N-ethyl-2-((4-(1-((4-methyl-4H-1,2,4-triazol-3-yl)methyl)cyclobutyl)-6-(6-(((1-methylcyclobutyl)amino)methyl)-1-oxo-4-(trifluoromethyl)isoindolin-2-yl)pyridin-2-yl)amino)acetamide formate] | (1.7x)
CN(C)C(=O)CNc1cc(C2(Cc3nncn3C)CCC2)cc(N2Cc3c(cc(CNC4(C)CCC4)cc3C(F)(F)F)C2=O)n1.O=CO [Compound 311, N,N-dimethyl-2-((4-(1-((4-methyl-4H-1,2,4-triazol-3-yl)methyl)cyclobutyl)-6-(6-(((1-methylcyclobutyl)amino)methyl)-1-oxo-4-(trifluoromethyl)isoindolin-2-yl)pyridin-2-yl)amino)acetamide formate] | (1.3x)
CCC1(NCc2cc3c(c(C(F)(F)F)c2)CN(c2cccc(C4(Cc5nncn5C)CC(F)(F)C4)c2)C3=O)CCC1.O=CO [Compound 369, 2-(3-(3,3-difluoro-1-((4-methyl-4H-1,2,4-triazol-3-yl)methyl)cyclobutyl)phenyl)-6-(((1-ethylcyclobutyl)amino)methyl)-4-(trifluoromethyl)isoindolin-1-one formate] | (0.90x)
CCOc1cc([C@H](C)Cc2nncn2C)cc(N2Cc3c(cc(CN4CCC5(CC5)C4)cc3C(F)(F)F)C2=O)n1.O=CO [Compound 56, (R)-6-((5-azaspiro[2.4]heptan-5-yl)methyl)-2-(6-ethoxy-4-(1-(4-methyl-4H-1,2,4-triazol-3-yl)propan-2-yl)pyridin-2-yl)-4-(trifluoromethyl)isoindolin-1-one formate] | 1.4x
CC1CC(C)(NCc2cc3c(c(C(F)(F)F)c2)CN(c2cccc(C4(Cc5nncn5C)CC(F)(F)C4)c2)C3=O)C1.O=CO (centres unmarked) [Compound 353, 2-(3-(3,3-difluoro-1-((4-methyl-4H-1,2,4-triazol-3-yl)methyl)cyclobutyl)phenyl)-6-(((1,3-dimethylcyclobutyl)amino)methyl)-4-(trifluoromethyl)isoindolin-1-one formate] | (0.56x)
CC1CCN(CCNc2cc(C3(Cc4nncn4C)CCC3)cc(N3Cc4c(cc(CNC5(C)CCC5)cc4C(F)(F)F)C3=O)n2)CC1.O=CO [Compound 309, 2-(4-(1-((4-methyl-4H-1,2,4-triazol-3-yl)methyl)cyclobutyl)-6-((2-(4-methylpiperidin-1-yl)ethyl)amino)pyridin-2-yl)-6-(((1-methylcyclobutyl)amino)methyl)-4-(trifluoromethyl)isoindolin-1-one formate] | (0.97x)
Cn1cnnc1CC1(c2cccc(N3Cc4c(cc(CNCC5(C)CC5)cc4C(F)(F)F)C3=O)c2)CC(F)(F)C1.O=CO [Compound 352, 2-(3-(3,3-difluoro-1-((4-methy-4H-1,2,4-triazol-3-yl)methyl)cyclobutyl)phenyl)-6-((((1-methylcyclopropyl)methyl)amino)methyl)-4-(trifluoromethyl)isoindolin-1-one formate] | (0.56x)
